Ab-14 heavy chain CDR variants: yeast mating affinities

Source: Engelhart et al. 2022 (doi:10.1038/s41597-022-01779-4), MIT Lincoln Laboratory and A-Alpha Bio; data file from the FLAb repository.

Target: peptide PDVDLGDISGINAS, taken from heptad repeat 2 (HR2) of SARS-CoV-2 spike.

Parent scFv Ab-14: VH joined to VL by three GGGGS repeats. Changes lie in the heavy chain CDRs alone.
VH: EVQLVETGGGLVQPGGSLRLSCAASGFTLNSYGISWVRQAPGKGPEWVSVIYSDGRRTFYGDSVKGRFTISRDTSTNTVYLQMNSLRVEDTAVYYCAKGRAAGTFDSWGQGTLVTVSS
VL: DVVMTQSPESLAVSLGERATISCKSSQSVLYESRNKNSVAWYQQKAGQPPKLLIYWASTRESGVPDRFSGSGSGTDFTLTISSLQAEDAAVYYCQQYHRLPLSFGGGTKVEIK

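Phage display of a naive human antibody library on the peptide gave the parent. Variants in AAYL49 differ from the parent at up to three CDR positions; double and triple changes were sampled at random. Affinity was read by AlphaSeq, a pooled yeast mating assay with surface-displayed partners. Mating (16 h, 30 °C) was followed by selection of diploids and sequencing of their barcodes. A regression on co-assayed BCL2-family reference pairs converts the normalised counts of each replicate to an apparent Kd. Mating was done three times.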

The whole VH of each variant is written out. Every variant below is changed at T28 of the VH (sequential numbering). The Kd shown is the geometric mean over detected replicates; a lower Kd is a better binder. A pair that was not seen in any replicate is written "nd"; this usually means weak binding, but a binder can also be missed. Empty control strains, which show no peptide, gave a signal in 15% of pairings with library AAYL49; the median was 11 µM and 95% of these signals were weaker than 680 nM. No background was subtracted. For reference, the parent read 4.4 nM as the reference entry and 13 µM (one replicate of three) as a member of this library.

* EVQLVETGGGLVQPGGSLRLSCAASGFKLNSYMISWVRQAPGKGPEWVSVIYSDGRRTFYGDSVKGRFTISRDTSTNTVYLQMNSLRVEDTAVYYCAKGRQAGTFDSWGQGTLVTVSS = nd (0 of 3 replicates)
* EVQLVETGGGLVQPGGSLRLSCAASGFILNSVGISWVRQAPGKGPEWVSVIYSDGRRTFYGDSVKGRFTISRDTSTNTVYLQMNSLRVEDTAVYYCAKGRAAGTFMSWGQGTLVTVSS = 17 µM (2 of 3 replicates)
* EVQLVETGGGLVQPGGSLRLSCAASGFNLNSYGITWVRQAPGKGPEWVSVIYSDGRRTFYWDSVKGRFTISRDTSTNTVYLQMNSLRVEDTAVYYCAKGRAAGTFDSWGQGTLVTVSS = nd (0 of 3 replicates)
* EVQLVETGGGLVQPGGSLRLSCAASGFSLNAYGISWVRQAPGKGPEWVSVIYSDVRRTFYGDSVKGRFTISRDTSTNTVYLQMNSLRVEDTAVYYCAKGRAAGTFDSWGQGTLVTVSS = nd (0 of 3 replicates)
* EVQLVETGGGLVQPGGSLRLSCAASGFSLNSYGISWVRQAPGKGPEWVSNIYSDGRMTFYGDSVKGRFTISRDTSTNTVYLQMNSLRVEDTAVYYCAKGRAAGTFDSWGQGTLVTVSS = 35 µM (3 of 3 replicates)
* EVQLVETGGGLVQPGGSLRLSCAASGFVLNSYGISWVRQAPGKGPEWVSVIYNDGRDTFYGDSVKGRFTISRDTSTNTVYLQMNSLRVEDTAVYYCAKGRAAGTFDSWGQGTLVTVSS = 35 µM (1 of 3 replicates)
* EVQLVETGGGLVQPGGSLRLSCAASGKILNSYGISWVRQAPGKGPEWVSVIYSDIRRTFYGDSVKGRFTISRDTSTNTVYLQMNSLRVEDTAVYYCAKGRAAGTFDSWGQGTLVTVSS = 2.3 µM (1 of 3 replicates)
* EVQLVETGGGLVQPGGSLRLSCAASGFFLNSYGISWVRQAPGKGPEWVSVIYSIGRRTFYGDSVKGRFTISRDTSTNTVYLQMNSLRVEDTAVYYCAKGRAAHTFDSWGQGTLVTVSS = nd (0 of 3 replicates)
* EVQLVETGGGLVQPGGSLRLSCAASGFYLNSYGISWVRQAPGKGPEWVSVIYSDGRRTFYGDSVKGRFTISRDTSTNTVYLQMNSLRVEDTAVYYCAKGRAAGTAISWGQGTLVTVSS = nd (0 of 3 replicates)
* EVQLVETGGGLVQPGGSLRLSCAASGFMLCSYGISWVRQAPGKGPEWVSVIYSDGRRTFYGDSVKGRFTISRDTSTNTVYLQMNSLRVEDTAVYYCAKGRAAGTFDSWGQGTLVTVSS = 200 nM (3 of 3 replicates)
* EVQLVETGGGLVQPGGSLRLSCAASGFNLNSYGISWVRQAPGKGPEWVSVIYSDGRRTFYGDSVKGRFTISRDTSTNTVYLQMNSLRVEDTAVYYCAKGRASGTFDSWGQGTLVTVSS = 9.9 nM (3 of 3 replicates)
* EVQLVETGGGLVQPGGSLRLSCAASGFGLNSYGISWVRQAPGKGPEWVSFIYSDGRRTFYGDSVKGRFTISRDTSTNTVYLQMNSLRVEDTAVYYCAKGRAAGTPDSWGQGTLVTVSS = nd (0 of 3 replicates)
* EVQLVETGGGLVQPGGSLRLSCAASGNNLNSYGISWVRQAPGKGPEWVSVIYSDGRRTFYGDSVVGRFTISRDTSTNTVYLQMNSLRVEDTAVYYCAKGRAAGTFDSWGQGTLVTVSS = 29 µM (1 of 3 replicates)
* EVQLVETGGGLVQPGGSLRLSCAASGFHLNSYGISWVRQAPGKGPEWVSVIYSDGRRVFYGHSVKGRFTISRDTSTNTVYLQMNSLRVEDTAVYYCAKGRAAGTFDSWGQGTLVTVSS = 260 nM (3 of 3 replicates)
* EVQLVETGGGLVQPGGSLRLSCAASGWALNSYGISWVRQAPGKGPEWVSVIYSDGRRTFYGDSVKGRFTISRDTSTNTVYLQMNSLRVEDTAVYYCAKGRAAGTIDSWGQGTLVTVSS = 12 µM (2 of 3 replicates)
* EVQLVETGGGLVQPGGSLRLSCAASGFMLNSYGISWVRQAPGKGPEWVSVIYSDGRRTFYGDSVKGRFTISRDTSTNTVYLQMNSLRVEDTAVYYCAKGRATGTFDSWGQGTLVTVSS = nd (0 of 3 replicates)
* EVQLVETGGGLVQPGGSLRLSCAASGFPLNSYGISWVRQAPGKGPEWVSNIQSDGRRTFYGDSVKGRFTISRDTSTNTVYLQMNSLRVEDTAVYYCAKGRAAGTFDSWGQGTLVTVSS = nd (0 of 3 replicates)
* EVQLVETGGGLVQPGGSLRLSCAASGNGLNSYGISWVRQAPGKGPEWVSVIYSDGRRTFYGDSVDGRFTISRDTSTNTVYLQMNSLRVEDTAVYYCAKGRAAGTFDSWGQGTLVTVSS = 4.5 µM (3 of 3 replicates)
* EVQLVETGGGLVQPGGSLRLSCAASGFYLNSYGISWVRQAPGKGPEWVSFIYSDGRRTFYGDSKKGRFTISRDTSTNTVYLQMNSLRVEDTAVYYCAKGRAAGTFDSWGQGTLVTVSS = nd (0 of 3 replicates)
* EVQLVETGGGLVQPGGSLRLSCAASGFYLNSYGISWVRQAPGKGPEWVSVIYSDGFWTFYGDSVKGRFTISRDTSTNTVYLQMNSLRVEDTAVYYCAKGRAAGTFDSWGQGTLVTVSS = nd (0 of 3 replicates)
* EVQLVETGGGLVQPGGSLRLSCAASGFMLNSYGLSWVRQAPGKGPEWVSVIYSDGRRTFYGDSVKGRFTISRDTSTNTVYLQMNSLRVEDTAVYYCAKGRAAGTFDSWGQGTLVTVSS = 610 nM (3 of 3 replicates)
* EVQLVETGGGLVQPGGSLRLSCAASGFPLNSCGISWVRQAPGKGPEWVSVIYSDGRRTFYGDSVKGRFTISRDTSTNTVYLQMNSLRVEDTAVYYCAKGRAAGTFDSWGQGTLVTVSS = 50 µM (1 of 3 replicates)
* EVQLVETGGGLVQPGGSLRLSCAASGFVLNSYGISWVRQAPGKGPEWVSVIYSDGRRTPYGDSVKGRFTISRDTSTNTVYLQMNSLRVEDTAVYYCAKWRAAGTFDSWGQGTLVTVSS = nd (0 of 3 replicates)
* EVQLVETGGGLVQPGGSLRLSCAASGFHLNSYGISWVRQAPGKGPEWVSVIYSDGRRTFYGDSVKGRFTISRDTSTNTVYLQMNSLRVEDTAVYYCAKGRAAGTFCFWGQGTLVTVSS = nd (0 of 3 replicates)

Picked from the list: the 2 lowest averages where every replicate gave a value.

{"VH": "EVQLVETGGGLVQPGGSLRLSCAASGFNLNSYGISWVRQAPGKGPEWVSVIYSDGRRTFYGDSVKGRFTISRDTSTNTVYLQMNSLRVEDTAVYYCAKGRASGTFDSWGQGTLVTVSS", "Kd (apparent)": "9.9 nM", "replicates with signal": "3/3"}
{"VH": "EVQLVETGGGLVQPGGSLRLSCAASGFMLCSYGISWVRQAPGKGPEWVSVIYSDGRRTFYGDSVKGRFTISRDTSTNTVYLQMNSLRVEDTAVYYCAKGRAAGTFDSWGQGTLVTVSS", "Kd (apparent)": "200 nM", "replicates with signal": "3/3"}